The values below come from patent publication US20260193293A1, “PEPTIDES CAPABLE OF INHIBITING PROTEIN-PROTEIN INTERACTIONS AT GABAB1A SUBUNIT AND USES THEREOF” (UNIVERSITY OF COPENHAGEN, priority 2022, published 2026).

Amino acid sequences for entries named in this document (tags omitted). Residues count along the entry.
UniProt Q9UBS5, 15-961 limits assumed: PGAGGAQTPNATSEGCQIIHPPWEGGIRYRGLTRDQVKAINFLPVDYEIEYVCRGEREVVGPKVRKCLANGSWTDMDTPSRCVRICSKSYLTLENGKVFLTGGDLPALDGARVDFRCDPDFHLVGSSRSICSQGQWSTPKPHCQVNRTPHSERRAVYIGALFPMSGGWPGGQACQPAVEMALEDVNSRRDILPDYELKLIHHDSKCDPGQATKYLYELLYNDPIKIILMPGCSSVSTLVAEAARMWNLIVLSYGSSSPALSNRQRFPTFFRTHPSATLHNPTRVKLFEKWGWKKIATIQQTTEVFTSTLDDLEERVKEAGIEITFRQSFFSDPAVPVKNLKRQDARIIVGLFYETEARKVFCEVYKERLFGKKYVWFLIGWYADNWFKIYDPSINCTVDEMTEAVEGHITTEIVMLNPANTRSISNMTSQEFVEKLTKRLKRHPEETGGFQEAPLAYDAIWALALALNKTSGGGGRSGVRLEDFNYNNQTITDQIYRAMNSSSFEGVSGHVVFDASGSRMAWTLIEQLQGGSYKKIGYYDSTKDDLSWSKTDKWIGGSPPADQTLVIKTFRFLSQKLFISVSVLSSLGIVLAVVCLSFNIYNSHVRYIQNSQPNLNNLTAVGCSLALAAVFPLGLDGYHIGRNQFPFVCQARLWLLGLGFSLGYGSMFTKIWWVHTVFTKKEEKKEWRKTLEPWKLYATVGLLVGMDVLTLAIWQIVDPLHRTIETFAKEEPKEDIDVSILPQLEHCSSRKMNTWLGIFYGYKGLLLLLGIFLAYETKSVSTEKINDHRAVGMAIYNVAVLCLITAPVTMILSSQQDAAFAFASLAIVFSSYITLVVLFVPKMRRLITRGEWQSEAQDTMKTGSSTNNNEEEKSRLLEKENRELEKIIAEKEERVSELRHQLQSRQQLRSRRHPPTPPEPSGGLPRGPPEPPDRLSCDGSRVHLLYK
UniProt Q9WV18, 20-960: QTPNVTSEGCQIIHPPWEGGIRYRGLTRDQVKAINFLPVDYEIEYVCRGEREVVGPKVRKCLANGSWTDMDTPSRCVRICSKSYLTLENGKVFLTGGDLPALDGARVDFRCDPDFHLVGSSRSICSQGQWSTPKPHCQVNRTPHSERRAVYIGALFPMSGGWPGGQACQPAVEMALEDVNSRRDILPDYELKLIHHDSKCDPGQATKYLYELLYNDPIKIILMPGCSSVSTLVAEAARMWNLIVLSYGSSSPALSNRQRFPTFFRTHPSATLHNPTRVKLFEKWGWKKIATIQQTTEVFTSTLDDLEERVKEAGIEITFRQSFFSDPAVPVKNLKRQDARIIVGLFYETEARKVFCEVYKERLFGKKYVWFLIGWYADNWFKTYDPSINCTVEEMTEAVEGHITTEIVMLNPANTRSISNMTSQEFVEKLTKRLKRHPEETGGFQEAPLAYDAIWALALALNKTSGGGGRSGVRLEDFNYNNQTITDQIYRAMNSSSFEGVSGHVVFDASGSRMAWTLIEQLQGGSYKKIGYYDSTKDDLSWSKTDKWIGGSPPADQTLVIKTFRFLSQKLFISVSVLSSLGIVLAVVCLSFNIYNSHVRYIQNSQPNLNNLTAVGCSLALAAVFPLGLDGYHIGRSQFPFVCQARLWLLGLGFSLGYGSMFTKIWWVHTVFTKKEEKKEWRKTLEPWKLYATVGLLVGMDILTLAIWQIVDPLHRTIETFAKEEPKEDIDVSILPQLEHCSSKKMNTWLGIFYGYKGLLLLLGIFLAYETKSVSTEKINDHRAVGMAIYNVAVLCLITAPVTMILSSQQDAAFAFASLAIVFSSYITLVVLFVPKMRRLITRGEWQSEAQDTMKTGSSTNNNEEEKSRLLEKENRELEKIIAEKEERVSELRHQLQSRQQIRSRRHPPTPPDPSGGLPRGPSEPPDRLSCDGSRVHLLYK

Series [1] concerns the target Sushi domains (SD1/2) protein. Briefly: Fluorescence polarization (FP) competition assay with AJAP-1probe, calculated Ki. The format is binding. The method, then:
Fluorescence polarization (FP). FP assay was employed to determine the binding affinity of peptides in flat bottom black 384-well plates (Corning Life Science) using a Safire2 plate reader (Tecan). All experiments were conducted in 1×PBS (pH 7.4) containing 1% bovine serum albumin (BSA) at rt. The fluorescence polarization values were measured using excitation/emission wavelengths of 530/580 nm. The instrumental Z-factor was adjusted to obtain the maximum fluorescence intensity and the G-factor was calibrated to give an initial millipolarization value of 20 mP. All FP assays including saturation or competition experiments were performed using 25 nM of TAMRA labeled peptides as probes. For saturation assay, the millipolarization values were measured after mixing of probes with 12 serial 1 to 1 diluted concentrations of Sushi domains (SD1/2) protein. All experiments were performed in triplicate and the data were plotted to the one-site binding model using GraphPad Prism 9 to calculate the Kd of probes. […] The experiments were performed at least in triplicate and the data were fitted to the sigmoidal dose response curve using GraphPad Prism 9 to obtain the IC50 of peptides. The Ki values were calculated according to Nikolovska-Coleska et al^310.

Series [2] relates to GBRs at the neuronal membrane. In words: Confocal imaging of AJAP1-mediated recruitment of GB1a/2 receptors, HEK293T/neuron co-cultures. The note with it: compared to Scr-20; 10, 30 and 60 min incubation. The format is cell-based, mouse. The procedure:
FIG. 6: High-affinity peptide efficiently abolishes AJAP1-mediated recruitment of GB1a/2 receptors at neuron's membrane. A) Confocal fluorescent imaging of AJAP-1 and GBRs using AJAP-1 transfected HEK293T/mouse hippocampal neuron co-cultures. […] Furthermore, the inhibitory effect becomes increasingly significant with extended incubation time at 30 minutes and 60 minutes relative to at 10 min.

Series [3] can be described thus: In vitro plasma stability. The note with it: human.
In series [4] the target is T1, GB1a/2 receptors in presence of AJAP-1 in trans (Homo sapiens, UniProt Q9UBS5).
T1 construct: Flag; expressed in transfected cells; host or cells: HEK293T cells stably expressing chimeric Gαq/i
In words: SRE-Luciferase accumulation assay. The format is cell-based. The note with it: 10 μM peptide. From the text: (§1) To elucidate whether our developed peptides AJAP-1WT, 16 and 20 could interact and disrupt the trans-interaction between AJAP-1 and GB1a/2Rs, we used an established accumulation assay based on coupling GB1a/2Rs to phospholipase C (PLC) via chimeric Gαqi (Conklin et al. 1993). PLC activity is then monitored with a serum responsive element-luciferase (SRE-Luciferase) reporter amplifying the GB1a/2Rs response (Yoo et al. 2017) (FIG. 5).
(§2) HEK293T cells stably expressing Gαq/i were transiently transfected with Flag-GB1a, Flag-GB2 and SRE-FLuc with or without AJAP-1. In order to ensure GB1a/2 binding of AJAP-1 in trans, a pool of HEK293T-Gαq/i cells expressing AJAP-1 was mixed with HEK293-Gαq/i cells expressing Flag-GB1a, Flag-GB2 and SRE-FLuc. Transfected cells were distributed into 96-well microplates (Greiner Bio-One) at a density of 80,000 cells/well. After 24 h, the culture medium was replaced with Opti-MEM™-GlutaMAX™ Peptides were incubated in Opti-MEM™-GlutaMAX™ for 10 minutes. In presence of peptide, GB1a/2 receptors were activated with various concentrations of GABA for 6 h. FLuc activity in lysed cells was measured using the Luciferase® Assay Kit (Promega) and a Spark® microplate reader. Luminescence signals were adjusted by subtracting the luminescence obtained when expressing SRE-FLuc fusion proteins alone.

Another series has as its target T2, GB1a/2 receptors (Homo sapiens, UniProt Q9UBS5).
T2 construct: Flag; expressed in transfected cells; host or cells: HEK293T cells stably expressing chimeric Gαq/i
Briefly: SRE-Luciferase accumulation assay. The class given is cell-based. The note with it: in the absence of AJAP-1.
Source text: as §1, §2

Another series concerns the target T3, GB1a subunit (Mus musculus, UniProt Q9WV18).
T3 construct: using the homogenized membrane fraction of wild type mouse brains; from tissue; host or cells: adult mouse brain, solubilized membrane-enriched fraction
In words: Pull-down from mouse brain membrane fraction, immunoblotting. The class given is binding. The note with it: immobilized peptides, whole-brain lysate. The procedure:
Covalent immobilization of peptides. Peptides AJAP-1WT, 17 and 20 comprising a C-terminal Cys and a PEG2 linker, were loaded covalently to Dynabeads M-270 Epoxy beads (Thermo Fischer Scientific) according to the protocol of the manufacturer. 25 μL DMSO stocks of peptides (10 mM) were diluted 15 times into 350 μL coupling buffer (100 mM PBS buffer containing 2 M […] and 10 mM TCEP, PH=7.4) and agitated overnight at 37° C. with Dynabeads M-270 Epoxy beads (5 mg, ~3.3×10^8 beads), which had been washed and equilibrated with coupling buffer before. After removing excess peptides, the Dynabeads M-270 Epoxy beads were washed three times and equilibrated with 100 mM PBS buffer, pH=7.4 and stored at 4° C.
Preparation of whole-brain lysates. Dissected adult mouse brains were placed in ice-cold homogenization buffer (320 mM sucrose, 4 mM HEPES, PH 7.5, 1 mM EDTA, 1 mM EGTA, supplemented with complete EDTA-free protease inhibitor mixture (Roche), 1 mL per 100 mg of brain) and homogenized with a glass-Teflon homogenizer (40 passes) on ice. The homogenized material was cleared by centrifugation at 500×g (4° C., 15 min). […]
For orientation: A western blot detects proteins with antibodies after separation by electrophoresis.

SMILES strings stand for the structures. Where two headings read alike, the source gives them in different places.

Usually Ki stands for the equilibrium dissociation constant of an inhibitor or competing ligand from its target. The term half-life denotes how long it takes for the measured level to halve.

For `CC[C@H](C)[C@H](NC(=O)[C@H](Cc1ccc2ccccc2c1)NC(=O)[C@H](CC(=O)O)NC(=O)[C@H](CC(=O)O)NC(=O)[C@H](CC(=O)O)NC(=O)[C@H](CCC(=O)O)NC(C)=O)C(=O)N[C@@H](CC(=O)O)C(=O)N[C@@H](Cc1c[nH]c2ccccc12)C(=O)N[C@@H](Cc1ccc(O)cc1)C(=O)N[C@@H](CC(=O)O)C(=O)N[C@@H](CO)C(=O)N[C@@H](CC(=O)O)C(=O)N[C@@H](CC(=O)O)C(=O)N[C@@H](CC(=O)O)C(N)=O` [Peptide 20], the Ki in series [1] (CPP tagged peptides overview, SD1/2 binding affinity, mean ± SEM, n ≥ 3, read-out: Ki) is 1.5 ± 0.2 nM; in series [1] (Table 1, affinity maturation, mean ± SEM, n ≥ 3, read-out: Ki), 1.5 ± 0.2 nM; in series [1] (Table 16, ncAAs incorporated peptides, read-out: Ki (nM) mean ± SEM) it was 1.5 ± 0.2 nM; in series [1] (purified peptides, read-out: Ki), 1.5 nM. Besides, the “fluorescence intensity of GBRs at the neuronal membrane” value in series [2] is “significant reduction in membrane abundance”. Further, the half-life in series [3] was over 48 h. Besides, the “reduction of negative allosteric modulation effects of AJAP-1 at GB1a/2Rs in trans” value in series [4] is listed as “to a greater extent than AJAP-1WT peptide”. The “basal activity of GB1a/2Rs” value in series [4] (in presence of AJAP-1 in trans) is “elevated basal activity”. Moreover, the “Emax values of GABA-activated GB1a/2Rs” value on GB1a/2 receptors is “did not affect the Emax values”. Also, at GB1a subunit, the “pull-down of native GB1a” value is “ability to bind and enrich full-length GB1a subunit”.
